Binding of CDR-mutated scFvs to a peptide of the spike HR2 region

The measurements come from Engelhart et al. 2022 (doi:10.1038/s41597-022-01779-4) through the FLAb antibody collection.

Antigen: PDVDLGDISGINAS, a 14-residue peptide of the SARS-CoV-2 spike HR2 region.

The variants keep the light chain, the linker and the frameworks of Ab-14 (scFv order VH, a (GGGGS)3 linker, VL).
VH: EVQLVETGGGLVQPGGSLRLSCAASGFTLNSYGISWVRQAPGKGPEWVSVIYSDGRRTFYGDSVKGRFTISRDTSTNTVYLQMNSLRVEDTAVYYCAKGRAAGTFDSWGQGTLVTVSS
VL: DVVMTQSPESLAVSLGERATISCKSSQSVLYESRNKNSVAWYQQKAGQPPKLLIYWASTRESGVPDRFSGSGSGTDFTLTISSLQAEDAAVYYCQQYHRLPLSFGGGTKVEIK

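The library (AAYL49) carries one to three amino acid substitutions per variant, with no insertions or deletions. The scFvs were displayed on barcoded MATa yeast, the peptide on MATalpha yeast. Pairs that bind mate more often; barcode pairs of the diploids are counted by sequencing. The ratio of observed to expected reads was calibrated, replicate by replicate, on BCL2-family standards whose Kd was known from biolayer interferometry. There are three technical replicates.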

Each variant is given by its three heavy chain CDRs, as the data file delimits them; those of the parent are GFTLNSYGIS, VIYSDGRRTFYGDSVK, GRAAGTFDS. The read-out is the apparent dissociation constant on a log10 scale (nM): the lower, the stronger. The mean shown is taken over the replicates in which the pair was detected. Where no diploid with the target was found in that replicate, the entry reads "nd": below detection, most likely a poor binder, though not proof of it.

GFTLNSYHIS, VIYVDGRRNFYGDSVK, GRAAGTFDS: nd, nd, nd (controls 3 of 9).
GTTLNSYGIS, VIYSDGRRTFYWDSVK, GMAAGTFDS: nd, 4.07, nd (controls 1 of 9).
GFTLNSYGIS, VIYSDGRRTFYGDAVK, KRAAGTFDS: nd, nd, nd (controls 0 of 9).
GFTLNSYGIS, VTYSDGRQTFYGDSNK, GRAAGTFDS: nd, 3.62, 5.74 (mean 4.68; controls 0 of 9).
GFTLNSYGIS, VIYSVGRREFYGDSVK, GRHAGTFDS: nd, nd, nd (controls 0 of 9).
GYTLNSYGIS, VIYSDGRRTFYGDGNK, GRAAGTFDS: 3.88, nd, nd (controls 0 of 9).
GFTVNSYGIS, VIYSDGRRTFYGDSVK, GRAPNTFDS: 3.70, nd, nd (controls 2 of 9).
GFTLNSYGIS, VLYSDGRRTFYGDSVK, TRAWGTFDS: nd, nd, 5.14 (controls 1 of 9).
GFTLNSYGIS, VIYSDGRRTFYGDSIK, GRAVGTFDS: nd, nd, nd (controls 0 of 9).
GFTMNSYGIS, KIYSDGRRTFYEDSVK, GRAAGTFDS: 4.96, 4.10, nd (mean 4.53; controls 3 of 9).
GFTLNSYGIS, VIYSDGRRTFYGDSVK, GRARGTFDS: nd, 2.83, nd (controls 0 of 9).
GFTLNQYGIS, VIYKDGRRTFYGDSVK, GRAAGTLDS: 5.00, 3.90, nd (mean 4.45; controls 4 of 9).
GFTPNSGGIS, VIYSDGPRTFYGDSVK, GRAAGTFDS: 3.68, 5.13, 4.36 (mean 4.39; controls 4 of 9).
GFTLNSYGIS, VNYSDGRRCFYGDSVK, GRHAGTFDS: nd, nd, nd (controls 0 of 9).
GFTLNTYGIS, VIYTDGRRTFYGDWVK, GRAAGTFDS: nd, nd, 4.03 (controls 4 of 9).
GFTLNSEIIS, VIYSDGRRTFYGDSVK, GRAAGTFDS: nd, 4.36, nd (controls 2 of 9).
GFTVNSYGIS, VIYSDGRPTFYGDSVK, GRPAGTFDS: nd, nd, nd (controls 0 of 9).
GFTLNSYGIS, VIYSDGRRGFYGVSVK, GRAAGTFDS: 5.09, nd, nd (controls 2 of 9).
GFTSNAYGIN, VIYSDGRRTFYGDSVK, GRAAGTFDS: nd, nd, nd (controls 1 of 9).
GFKLNSYGIS, VIYSDGRRTFSGDPVK, GRAAGTFDS: nd, nd, 4.52 (controls 2 of 9).
GFTLNSYGIS, VIYSDGRRTFCRDSVL, GRAAGTFDS: 2.12, 2.12, 2.55 (mean 2.26; controls 5 of 9).
GFTLLSYGIS, VIYSWGRRFFYGDSVK, GRAAGTFDS: nd, 3.90, 5.01 (mean 4.46; controls 2 of 9).
GFTYLSSGIS, VIYSDGRRTFYGDSVK, GRAAGTFDS: nd, 4.56, 4.15 (mean 4.35; controls 0 of 9).
GFTLNSGGES, VIYSDGRRTFYGDSVK, GRAAFTFDS: nd, nd, nd (controls 0 of 9).
GFTLNSYGIS, VIYSDGRRTFYGDSVK, GEREGTFDS: nd, 4.10, 3.88 (mean 3.99; controls 1 of 9).
GFTLNSYGIW, VIYSDHRRTFYGDSVK, WRAAGTFDS: nd, 2.58, 3.77 (mean 3.17; controls 2 of 9).
GFTSNSHGIS, VIYSDGRRYFYGDSVK, GRAAGTFDS: nd, nd, nd (controls 0 of 9).
GFTLNSYGIS, TIYSDGRRTFWGDSVA, GRAAGTFDS: 4.10, 4.30, 5.05 (mean 4.48; controls 3 of 9).
GFTSNSYGIS, VIYIKGRRTFYGDSVK, GRAAGTFDS: nd, nd, nd (controls 0 of 9).
GFTLNSYGIS, VIYKDGRRTFYNDSHK, GRAAGTFDS: nd, nd, nd (controls 0 of 9).
GFTLDSYGIS, VMYSDGRRTFYIDSVK, GRAAGTFDS: 0.27, 0.59, 0.57 (mean 0.48; controls 0 of 9).

Background: pairings of library AAYL49 with three empty control strains gave a value in 15% of cases (median 4.06, 5th percentile 2.83). Values in that range, when seen in few replicates, are hard to tell from nonspecific mating. For each scFv, signals with the empty controls are counted beside the result. In this assay the parent's reference entry averaged 0.65; its copy inside this library read 4.11 (one replicate of three).